Reference: ChEMBL document CHEMBL1121934, “2,3-dihydro and carbocyclic analogues of tryptamines: interaction with serotonin receptors” (J Med Chem, 1982)

The chains behind the UniProt entries cited, without tags or fusion partners.
UniProt P30994, whole entry: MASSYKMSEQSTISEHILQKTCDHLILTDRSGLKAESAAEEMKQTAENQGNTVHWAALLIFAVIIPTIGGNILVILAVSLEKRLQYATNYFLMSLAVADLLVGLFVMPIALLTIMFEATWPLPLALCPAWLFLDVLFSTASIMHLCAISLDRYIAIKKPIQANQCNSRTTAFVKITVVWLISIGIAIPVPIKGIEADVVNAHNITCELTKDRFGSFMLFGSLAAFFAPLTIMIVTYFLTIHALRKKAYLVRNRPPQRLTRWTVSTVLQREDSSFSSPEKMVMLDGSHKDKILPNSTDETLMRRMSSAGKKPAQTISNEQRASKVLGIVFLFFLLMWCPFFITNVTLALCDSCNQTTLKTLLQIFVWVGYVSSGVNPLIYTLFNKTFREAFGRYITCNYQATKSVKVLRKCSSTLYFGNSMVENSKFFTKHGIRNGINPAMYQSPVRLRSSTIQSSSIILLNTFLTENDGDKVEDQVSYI

Target: 5-hydroxytryptamine receptor 2B (Rattus norvegicus, UniProt P30994)
Test: The binding affinity to 5-hydroxytryptamine 2B receptor of rat fundus
Settings: read-out: pA2 (converted)
Method in brief: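 Isolated rat stomach fundus strip preparation. After a 1-h equilibration, 5-HT oxalate dose-response curves (9–11 increasing concentrations) were run without and with 4–5 increasing concentrations of test compound. Apparent affinity was expressed as pA2 by Arunlakshana–Schild analysis, with linear regression giving both pA2 and Schild plot slope.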

Question: For COc1ccc2[nH]cc(CCN(C)C)c2c1 [MEBUFOTENIN], which Kb is on record?
Answer: 83.2 nM

Question: With CN(C)CCc1c[nH]c2ccccc12 as the compound, how does the Kb read?
Answer: 1000 nM
